Source: PubChem
LDHA block – blocks human lactate dehydrogenase A | 480,000 compounds, 0.15% hits | purified LDHA, NADH/diaphorase-resazurin fluorescence; hits give low values | P00338 | AID 1347041 | activity change, % (values are at about 110 or 230 µM); in the data active means activity change below about -30%; inconclusive means mostly about -25% to -30%;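 further: plate controls were DMSO wells for no effect and wells without enzyme for full effect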
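Enzyme activity of human lactate dehydrogenase 5 (2 nM; 0.06 mM NADH, 0.2 mM pyruvate, 5 min, RT) is measured via a resazurin/diaphorase fluorescence readout of residual NADH.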
miR-21 reporter – raises the signal of a miR-21 reporter; Potency, µM (doses to about 38.3 µM), inactives show top-dose reporter change, positive = more light; HeLa miR-21 FLuc reporter, luciferase, 48 h; AID 2288; 340,000 tested, under 10 active; active = well fitted rising curve with a large enough effect; inconclusive = small, poorly fitted or top-dose-only effect; inactive = no such curve, though single readings can be large or run the other way;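 further: % of control where 0% means no effect; miR-21 action dims this reporter so a rising signal means less miR-21 action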
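Using DMEM plus 10% FBS, HeLa miR-21-FLuc cells are incubated with test compounds (final up to about 40uM) for 48 hours; firefly luciferase signal is then imaged following reagent-mediated lysis.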
Apoferritin bind – candidate novel general anesthetic via apoferritin binding; 350,000 compounds, 0.074% hits; apoferritin/1-aminoanthracene competitive binding, fluorescence; P02791; Potency, µM (series often up to 77.5 µM), for inactives: at the highest dose activity change, negative = displacement, hits mostly inhibitors; further: potency means the concentration at half of the fitted maximal effect; on the % scale 0 is the no-effect control and ±100 the full control effect; nearly all actives have a fitted effect of over 20% in size
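Probe: 1-aminoanthracene (50% saturated, PBS). Protein: horse-spleen apoferritin, 10 uM. Incubation: 10 min, room temperature. Detection: 380 nm excitation, 535 nm emission. Analysis: normalized response, four-parameter Hill.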
The depositor's hits bear a star; ? = inconclusive; · = no result given; ! = a repeat was not active. Shown are actives, neighbours in structure and some others; about 0.2% of the full set was active somewhere. Unless noted, the call rests on the fitted dose curve; in most records, active means well fitted curve in the direction sought with a large enough effect; inconclusive means small, poorly fitted or top-dose-only effect, or another doubt; inactive means no such curve, though single readings can be large; an effect the other way counts as inactive or inconclusive.

SMILES	LDHA block	miR-21 reporter	Apoferritin bind
COc1ccc(N2C(=O)CN(C3CCCC3)[C@H]3CS(=O)(=O)C[C@H]32)cc1	-11.9	·	·
CC(=O)c1cccc(Nc2nc(-c3cccc(C)c3)nc3ccccc23)c1	8.2	26.1%	-8.2%
Cc1cccc(-c2nc(Nc3ccc(C(=O)O)cc3)c3ccccc3n2)c1	-39.2*	·	·
N#Cc1nc(-c2ccccc2F)oc1N1CCN(Cc2ccccc2)CC1	3.3	·	·
Cc1ccc(NC(=O)CN2C(=O)N/C(=C\c3cccn3-c3ccc(C(=O)NC#N)cc3)C2=O)cc1	-37.0*	·	·
N#CNC(=O)c1ccc(-n2cccc2/C=C2\NC(=O)N(CC(=O)Nc3ccc(Cl)cc3)C2=O)cc1	-5.1	·	·
N#C/C(=C\c1ccc(O)c(O)c1)C(=O)N1CCCC1	4.0	-20.3%	-10.3%
N#C/C(=C\c1ccc(O)c(O)c1)C(=O)c1ccc(O)c(O)c1	-90.0*	·	·
Cc1cc(C)nc(NC(c2cccs2)c2c(NC(=O)c3ccco3)sc(C)c2C)n1 (centres undefined)	7.9	·	·
CCN(Cc1ccc(OC)c(OC)c1)C(=O)c1cc(C)nc2ccccc12	0.3	·	·
O=C(NN=Cc1c(F)c(F)c(F)c(F)c1F)c1ccc(NS(=O)(=O)c2cccs2)cc1	-4.0	·	·
CC(=O)Nc1ccc(C=NNC(=O)c2ccc(NS(=O)(=O)c3cccs3)cc2)cc1	-32.5*	·	·
O=c1c2ccccc2nnn1Cc1ccccc1	-2.7	-15.1%	?
O=C(OCn1nnc2ccccc2c1=O)C1CCCCC1	-7.3	-2.1%	39.8µM*
O=C(CN1C(=O)C2CCCCC2C1=O)OCn1nnc2ccccc2c1=O (centres undefined)	-3.0	-6.4%	-16.4%
O=c1c2ccccc2nnn1Cc1ccccc1Cl	-5.8	-4.0%	14.1µM*
Cc1ccc2oc(C(=O)NCCCOC3CCCCC3)cc(=O)c2c1	2.8	·	·
CCCCN(C)Cc1c(C)[nH]c2ccc(Br)cc2c1=O	4.5	·	·
CCCN(CCC)Cc1c(C)[nH]c2ccc(Br)cc2c1=O	-30.7*	·	·
CCN(CC)c1ccc(/C=N/NS(=O)(=O)c2ccccc2)cc1	3.4	·	·
Cc1cccc(-c2nc3n(CC(=O)N4CCCCCC4)c(C)cc(=O)n3n2)c1	-30.7*	·	·
Cc1cccc(-c2nc3n(CC(=O)N4CCC(C)CC4)c(C)cc(=O)n3n2)c1	6.7	·	·
CC(=O)N(c1ccc(N(C(C)=O)S(=O)(=O)c2ccccc2)cc1)S(=O)(=O)c1ccccc1	-65.7*	1.4%	-0.3%
CC(=O)N(c1ccc(N(C(C)=O)S(=O)(=O)c2cccs2)cc1)S(=O)(=O)c1cccs1	-87.9*	0.4%	6.6%
COc1ccc(C(=O)N(c2ccc(OC)cc2)S(=O)(=O)c2cccs2)cc1	-1.8	-6.6%	1.2%

Reprinted from the part before: three entries, then new ones.
SMILES	LDHA block	miR-21 reporter	Apoferritin bind
CC(=O)N(c1ccc(N(C(C)=O)S(=O)(=O)c2ccccc2)cc1)S(=O)(=O)c1ccccc1	-65.7*	1.4%	-0.3%
CC(=O)N(c1ccc(N(C(C)=O)S(=O)(=O)c2cccs2)cc1)S(=O)(=O)c1cccs1	-87.9*	0.4%	6.6%
COc1ccc(C(=O)N(c2ccc(OC)cc2)S(=O)(=O)c2cccs2)cc1	-1.8	-6.6%	1.2%
CC(=O)N(c1ccc(C)cc1)S(=O)(=O)c1ccc(Cl)cc1	-5.4	-6.4%	-16.4%
CN1C(=O)C(NC(=O)C(=O)NCCc2c[nH]c3ccc(Cl)cc23)c2ccccc21 (centres undefined)	4.9	·	·
CCOC(=O)COc1ccc2c(=O)c(Oc3ccccc3OC)coc2c1	-12.4	·	·
CCCCC(=O)N(C)c1c(CC)nc2c(OCCC)cccn12	-14.9	·	·
CCCCC(=O)N(C)c1c(CC)nc2c(OCC(=O)N3CCOCC3)cccn12	-37.3*	·	·
Cn1c(-c2ccccc2)csc1=N	-49.2*	·	·
CN=c1scc(-c2ccccc2)n1C	-1.9	·	·
Cc1ccc2oc(C(=O)Nc3ccc(S(N)(=O)=O)cc3)cc(=O)c2c1	-3.1	·	·
CCOc1ccc(C2C(C#N)=C(N)Oc3n[nH]c(-c4ccc(F)cc4)c32)cc1OCC (centres undefined)	-12.8	·	·
N#CCCN(C(=O)Cn1nc(C(=O)O)c2ccccc2c1=O)c1ccccc1	-31.8*!	4.4%	0.2%
COc1ccccc1N(CCC#N)C(=O)Cn1nc(C(=O)O)c2ccccc2c1=O	-5.1	·	·
CCc1ccccc1/C=C/C(=O)O	-7.6	·	·
Nc1c(Cl)cccc1C(=O)OCc1nc(N)c2ccccc2n1	14.7	·	·
N=c1nc(-c2ccccc2)n(-c2ccccc2)s1	-71.3*	·	·
Cc1ccc(-c2nc(=Nc3ccccc3)sn2-c2ccccc2)cc1	3.0	·	·
O=C(NCCc1c[nH]c2ccccc12)c1ccc(Cl)c(Cl)c1	0.7	·	·
COCCNCCCOc1ccc(C(C)(C)c2ccccc2)cc1	-33.0*	-6.5%	?
C=CCNCCCOc1ccc(C(C)(C)c2ccccc2)cc1	?	3.0%	?
CC(C)NCCCOc1ccc(C(C)(C)c2ccccc2)cc1	-31.7*	-5.3%	?
COCCCNCCCOc1ccc(C(C)(C)c2ccccc2)cc1	-21.4	-5.1%	?
CC(C)(c1ccccc1)c1ccc(OCCCNCCO)cc1	-12.3	-1.6%	11.2µM*
CC(O)CNCCCOc1ccc(C(C)(C)c2ccccc2)cc1 (centres undefined)	-1.7	·	·
CC1CCCC(NC(=O)CCCc2cccs2)C1C (centres undefined)	8.1	·	·
Cc1ccc(C(=O)COC(=O)CC23CC4CC(CC(O)(C4)C2)C3)s1	2.3	·	·
c1ccc2c(c1)[nH]c1c(N3CCN(C4CCCCC4)CC3)ncnc12	-4.8	-1.8%	6.31µM*

5 compounds from above, ordered by SMILES length, lowest first:
SMILES	LDHA block	miR-21 reporter	Apoferritin bind
Cn1c(-c2ccccc2)csc1=N	-49.2*	·	·
CC1CCCC(NC(=O)CCCc2cccs2)C1C (centres undefined)	8.1	·	·
Cc1ccc(-c2nc(=Nc3ccccc3)sn2-c2ccccc2)cc1	3.0	·	·
Cc1ccc(C(=O)COC(=O)CC23CC4CC(CC(O)(C4)C2)C3)s1	2.3	·	·
Cc1ccc2oc(C(=O)Nc3ccc(S(N)(=O)=O)cc3)cc(=O)c2c1	-3.1	·	·

Continuation.
SMILES	LDHA block	miR-21 reporter	Apoferritin bind
c1ccc2c(c1)[nH]c1c(N3CCCC3)ncnc12	-5.2	17.3%	1.6%
Cc1oc2cc(OCCN3CCC(C(N)=O)CC3)ccc2c(=O)c1-c1ccc(Br)cc1	7.8	·	·
CC[n+]1ccc(/C=C/c2ccc(N(C)C)cc2)c2ccccc21	-1.2	?	?
CC[n+]1ccc(C[n+]2ccccc2)c2ccccc21	-39.7*	-3.7%	-14.7%
Cn1c(N2CCC(Cc3ccccc3)CC2)nc2c1c(=O)n(Cc1ccc(Cl)cc1)c(=O)n2C	6.6	·	·
CC(C)(Oc1ccc(Cl)cc1)C(=O)Nc1cc(C(C)(C)C)no1	2.7	·	·
COc1ccc(OCCN(C)CC(=O)Nc2ccccc2SC)cc1	0.7	-0.7%	-7.8%
COc1ccc(NC(=O)CN(C)CC(=O)Nc2ccccc2SC)cc1	-34.5*	-2.3%	-13.9%
COc1ccc(-c2nc(C#N)c(NCc3ccc4c(c3)OCO4)o2)cc1	1.1	·	·
CCOc1ccc(-c2nc(C#N)c(NCc3ccc4c(c3)OCO4)o2)cc1	-31.2*!	-30.9%	-10.0%
Cc1ccc(-c2cnc(CCC(=O)NCC(CC(C)C)N3CCOCC3)o2)cc1C (centres undefined)	9.3	·	·
Nc1nc(-c2ccc(Br)cc2)cs1	2.5	-36.8%	-17.5%
Nc1nc(-c2cccc(Br)c2)cs1	0.9	-47.7%	31.6µM*
Cc1ccc(-c2n[nH]c(=O)c3ccccc23)cc1S(N)(=O)=O	-30.2*!	-1.4%	2.3%
CNS(=O)(=O)c1cc(-c2n[nH]c(=O)c3ccccc23)ccc1C	-1.6	·	·
CC(C)c1ccccc1NC(=O)C1CC=CCC1 (centres undefined)	3.6	·	·
CC(C)c1cccc(C(C)C)c1NC(=O)C1CC=CCC1 (centres undefined)	-31.8*	·	·
O=C(CNC(=O)c1ccc2c(c1)OCCO2)N/N=C/c1ccc(Cl)cc1	-2.7	-1.0%	?
O=C(CNC(=O)c1ccc2c(c1)OCCO2)N/N=C/c1cccc(Br)c1	-4.9	-6.2%	5.62µM*
O=C(c1cc(=O)c2cc(F)ccc2o1)N(Cc1cccs1)c1ccccn1	7.2	·	·
COc1ccc2cc(C(=O)NCCCN(C)C)[nH]c2c1	-2.4	·	·
